Assay results as given in PubChem BioAssay (NCATS).
This is a selection; strong and weak results do not stand in their true shares. Results filed as inconclusive are left out. The source made the active and inactive calls. Unless noted, calls come from the whole dose curve; as a rule, active = well fitted curve in the direction sought with a large enough effect; inconclusive = small, poorly fitted or top-dose-only effect, or another doubt; inactive = no such curve, though single readings can be large; an effect the other way counts as inactive or inconclusive.

Sequences of proteins named here, by UniProt entry; tags and fusion partners are left off. A change or cut given only in a name is not applied to a line headed by its entry.
UniProt Q07343: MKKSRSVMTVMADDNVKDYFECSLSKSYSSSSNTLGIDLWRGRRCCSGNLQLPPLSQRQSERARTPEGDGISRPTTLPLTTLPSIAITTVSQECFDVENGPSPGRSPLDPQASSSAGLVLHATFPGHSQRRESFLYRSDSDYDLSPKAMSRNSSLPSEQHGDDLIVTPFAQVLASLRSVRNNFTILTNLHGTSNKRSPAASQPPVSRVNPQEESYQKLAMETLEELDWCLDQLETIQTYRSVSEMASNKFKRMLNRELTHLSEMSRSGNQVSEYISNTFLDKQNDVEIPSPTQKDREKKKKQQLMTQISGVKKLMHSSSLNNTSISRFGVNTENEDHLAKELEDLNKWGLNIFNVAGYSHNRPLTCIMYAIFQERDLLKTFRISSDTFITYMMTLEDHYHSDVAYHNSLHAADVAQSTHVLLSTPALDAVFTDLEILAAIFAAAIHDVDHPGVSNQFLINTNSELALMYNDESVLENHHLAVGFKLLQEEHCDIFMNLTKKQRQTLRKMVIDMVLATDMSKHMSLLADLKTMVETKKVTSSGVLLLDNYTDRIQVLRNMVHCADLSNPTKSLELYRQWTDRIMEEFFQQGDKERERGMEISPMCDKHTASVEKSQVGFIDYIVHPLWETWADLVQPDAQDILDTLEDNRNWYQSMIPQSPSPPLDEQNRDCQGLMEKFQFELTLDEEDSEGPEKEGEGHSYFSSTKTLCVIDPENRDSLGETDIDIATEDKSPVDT
UniProt A8B2U2: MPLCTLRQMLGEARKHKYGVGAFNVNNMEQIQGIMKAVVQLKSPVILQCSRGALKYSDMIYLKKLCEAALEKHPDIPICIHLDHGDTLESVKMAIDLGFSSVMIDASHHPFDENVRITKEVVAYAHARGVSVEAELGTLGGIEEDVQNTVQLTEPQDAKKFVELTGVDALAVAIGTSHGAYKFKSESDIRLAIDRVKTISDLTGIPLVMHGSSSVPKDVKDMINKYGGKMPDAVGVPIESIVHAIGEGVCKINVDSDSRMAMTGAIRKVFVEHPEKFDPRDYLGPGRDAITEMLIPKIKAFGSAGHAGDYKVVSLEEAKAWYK
UniProt P00883: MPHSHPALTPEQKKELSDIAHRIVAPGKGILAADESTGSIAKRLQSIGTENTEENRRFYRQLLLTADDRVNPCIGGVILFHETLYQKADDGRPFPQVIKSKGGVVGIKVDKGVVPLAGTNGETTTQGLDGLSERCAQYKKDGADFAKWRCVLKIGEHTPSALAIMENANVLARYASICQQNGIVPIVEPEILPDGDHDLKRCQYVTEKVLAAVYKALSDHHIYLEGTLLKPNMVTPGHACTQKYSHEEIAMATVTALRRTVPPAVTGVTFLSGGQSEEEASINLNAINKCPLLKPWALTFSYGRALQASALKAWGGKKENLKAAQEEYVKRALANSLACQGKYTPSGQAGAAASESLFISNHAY

Assays:
[1] = AP1 Signaling Pathway (AID 357; active = well fitted curve in either direction with a large enough effect, not every such curve was filed as active;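 note: ME-180 reporter cells stimulated with EGF at its EC50 level; % is set by controls: 0 for no effect and ±100 for the full control effect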); conditions: ME-180 AP-1-bla reporter, EGF-induced, beta-lactamase ratio, 5 h; at 7.69 µM (top of the series) unless noted
Method in brief: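 Read-out was the 460nm/530nm emission ratio (excitation 405nm) after CCF4 loading for 2.5 hours at room temperature. Cells carried an AP-1-driven beta-lactamase reporter, were stimulated with EC50 EGF plus compound for 5 hours, and AC50 values came from titrations.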

[2] = NFAT Signaling Pathway (AID 444; active = well fitted curve in either direction with a large enough effect, not every such curve was filed as active;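 note: carbachol stimulus at about its EC50 of 1 µM final; % is set by controls: 0 for no effect and ±100 for the full control effect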); conditions: Jurkat NFAT-bla M1, carbachol, beta-lactamase ratio, 5 h; at 7.69 µM (top of the series) unless noted
[3] = Stat Signaling Pathway (AID 446; active = well fitted curve in either direction with a large enough effect, not every such curve was filed as active;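 note: ME-180 cervical cancer cells given 40 pM IL-6 alongside compound; SIE-controlled beta-lactamase reporter measured as 460/530 nm FRET emission ratio; % is set by controls: 0 for no effect and ±100 for the full control effect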); conditions: ME-180 SIE beta-lactamase reporter, IL-6 stimulated, 5 h; at 7.69 µM (top of the series) unless noted
Method in brief: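 Reporter line: ME-180 cervical carcinoma, SIE-beta-lactamase. Treatment: compound with 40 pM IL-6, 5 hrs, 37 C, in low-serum OPTI-MEM with 10 mM HEPES pH 7.3. Detection: 460/530 nm fluorescence.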

[4] = target: Mitogen-activated protein kinase 10 (Mus musculus) (UniProt Q61831); test: JNK3 AlphaScreen Assay (AID 530; active = well fitted curve in either direction with a large enough effect, not every such curve was filed as active;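 note: kinase came from lysate of stimulated human HepG2 cells; signal reports phosphorylation of biotinylated GST-cJun 1-79 at Ser73 with 10 µM ATP; % is set by controls: 0 for no effect and ±100 for the full control effect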); conditions: JNK3 lysate, c-Jun phosphorylation; at 11.4 µM (top of the series) unless noted
Method in brief: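 Compound titrations were preincubated 15 minutes at room temperature with substrate, antibody and pre-activated JNK3-containing HepG2 lysate. Reactions were started with 10 uM ATP and stopped with EDTA-containing bead buffer for AlphaScreen detection.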

[5] = target: 3',5'-cyclic-AMP phosphodiesterase 4B (Homo sapiens) (UniProt Q07343); test: qHTS Assay for Inhibitors of PDE-IV (AID 607; active = well fitted activation curve with a large enough effect in the main read-out, with a control signal flat, not every such curve was filed as active; note: % of control where 0% means no effect); conditions: HEK293 ACTOne CNG channel cells, membrane potential fluorescence; at 22.9 µM (top of the series)
Method in brief: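 Cell-based read-out of cAMP via a modified cyclic nucleotide-gated channel and membrane potential dye (535/590 nm) in HEK293 cells expressing PDE4 endogenously. Compounds tested up to 22.9 uM final; 100 uM RO 20-1724 reference.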

[6] = qHTS Assay for Inhibitors of Fructose-1,6-bisphosphate Aldolase from Giardia Lamblia: Giardia lamblia growth inhibition (AID 2785); conditions: Giardia lamblia trophozoite growth inhibition; at 38.3 µM (top of the series); note: % is set by controls: 0 for no effect and ±100 for the full control effect; nearly all actives have a fitted effect of over 70% in size
Method in brief: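 Whole-parasite growth test: Giardia WB trophozoites in TYI-S-33 (pH 7.0), 100 per well, incubated 48 h at 37C with compound. ATP content was read by ATPlite luminescence.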

[7] = qHTS Assay for Inhibitors of Fructose-1,6-bisphosphate Aldolase from Giardia Lamblia: Mammalian cellular toxicity (AID 2786); conditions: mammalian cell viability counter-screen; at 57.5 µM (top of the series);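 note: compound exposure lasted 48 h before reading; % is set by controls: 0 for no effect and ±100 for the full control effect; nearly all actives have a fitted effect of over 60% in size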
Method in brief: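 Mammalian cytotoxicity surrogate: Chinese hamster ovary cells exposed to compound for 48 h at 37 °C. Cellular ATP then measured with ATPlite reagent, 20 min incubation.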

[8] = target: Fructose-bisphosphate aldolase (Giardia intestinalis (strain ATCC 50803 / WB clone C6)) (UniProt A8B2U2); test: qHTS Assay for Inhibitors of Fructose-1,6-bisphosphate Aldolase from Giardia Lamblia: Primary screen confirmation (AID 2787); conditions: purified Giardia aldolase enzyme activity; at 57.5 µM (top of the series);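 note: aldolase product measured through coupled diaphorase step turning resazurin into fluorescent resorufin; % is set by controls: 0 for no effect and ±100 for the full control effect; nearly all actives have a fitted effect of over 45% in size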
Method in brief: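 Confirmation of primary hits by qHTS up to 57.5 uM final compound. Enzyme at 40 nM with 30 uM ZnCl2, 10 min RT pre-incubation, then substrate/coupling/resorufin-forming detection mix for 20 min before fluorescence read at 525/598 nm.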

[9] = target: Fructose-bisphosphate aldolase A (Oryctolagus cuniculus) (UniProt P00883); test: qHTS Assay for Inhibitors of Fructose-1,6-bisphosphate Aldolase from Giardia Lamblia: Rabbit FBPA Selectivity (AID 2794); conditions: Rabbit muscle FBPA enzyme inhibition, selectivity counter-screen; at 57.5 µM (top of the series); note: % is set by controls: 0 for no effect and ±100 for the full control effect; nearly all actives have a fitted effect of over 60% in size
Method in brief: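 Rabbit FBPA, coupled to a resorufin-type fluorescent read (525/598 nm), tests whether primary hits hit Class I aldolase. Compound (up to 57.5 uM final) sits 10 min at RT with coupling enzyme before substrate/detection mix; read after 20 min RT.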

[10] = qHTS Assay for Inhibitors of Fructose-1,6-bisphosphate Aldolase from Giardia Lamblia: Coupling assay counterscreen confirmation (AID 2795); conditions: GAPDH coupling enzyme counterscreen, biochemical; at 57.5 µM (top of the series); note: % is set by controls: 0 for no effect and ±100 for the full control effect; nearly all actives have a fitted effect of over 55% in size
Method in brief: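 Fluorescence (excitation 525 nm, emission 598 nm) reports signal from the coupled glyceraldehyde-3-phosphate dehydrogenase system with an AmpLite Red detection kit. Compounds up to 57.5 uM final were incubated 10 min, then 20 min after substrate addition, both at room temperature.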

NCC[C@@H](N)CSP(=O)(O)O
inactive: activity change, negative = inhibition [1] 7.15% | activity change, negative = inhibition [2] 10.4% | activity, negative = inhibition [3] -2.77% | activity change, negative = inhibition [4] -0.321% | activation (PDE inhibition) [5] 1.04%

O=C(NC(Sc1ccncn1)C(Cl)(Cl)Cl)c1ccccc1 (stereo not given)
inactive: activity change, negative = inhibition [6] -12% | viability change, negative = toxicity [7] 6.81% | activity change, negative = inhibition [8] 1.59% | activity, negative = inhibition [9] -1.15% | activity change, negative = inhibition [10] -3.09%
